For the assay, the target named is Protein phosphatase methylesterase 1 (Homo sapiens) (UniProt Q9Y570). Description: endogenous PME-1 and serine hydrolase inhibition – cell lysate, mouse brain cytosol, FP-rhodamine, gel ABPP, selectivity assay for PME-1 inhibitor project, dose response (AID 2366).

Protein sequences, listed by entry. Tags and fused reporters are not part of them. Lines headed by an entry give the natural chain unless they say otherwise; changes in a name come on top.
UniProt Q9Y570: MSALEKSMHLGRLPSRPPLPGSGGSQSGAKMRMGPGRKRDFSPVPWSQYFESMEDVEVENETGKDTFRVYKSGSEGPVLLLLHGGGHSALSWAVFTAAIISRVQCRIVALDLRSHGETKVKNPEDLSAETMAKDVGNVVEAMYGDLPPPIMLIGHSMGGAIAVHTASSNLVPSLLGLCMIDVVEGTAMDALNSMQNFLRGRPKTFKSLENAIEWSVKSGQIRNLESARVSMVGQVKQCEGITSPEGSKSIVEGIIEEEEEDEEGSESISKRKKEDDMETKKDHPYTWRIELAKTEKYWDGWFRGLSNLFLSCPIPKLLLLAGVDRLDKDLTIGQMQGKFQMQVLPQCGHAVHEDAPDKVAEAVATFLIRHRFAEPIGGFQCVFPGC

With `CS(=O)(=O)/C(C#N)=C/c1cccn1S(=O)(=O)c1ccc(Cl)cc1`, the IC50 is 3 µM.

With `N#C/C(=C\c1cccn1S(=O)(=O)c1ccccc1)S(=O)(=O)c1ccc(F)cc1`, the IC50 is 4.8 µM.

As usually defined, the IC50 is the midpoint of a concentration-inhibition curve.
